Measured affinities in a library of Ab-95 light chain variants

Target: peptide PDVDLGDISGINAS, taken from heptad repeat 2 (HR2) of SARS-CoV-2 spike.

The variants keep the heavy chain, the linker and the frameworks of Ab-95 (scFv order VH, three GGGGS repeats, VL).
VH: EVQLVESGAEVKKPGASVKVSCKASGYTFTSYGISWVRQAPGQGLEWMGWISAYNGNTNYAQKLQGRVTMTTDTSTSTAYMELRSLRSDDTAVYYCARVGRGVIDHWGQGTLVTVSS
VL: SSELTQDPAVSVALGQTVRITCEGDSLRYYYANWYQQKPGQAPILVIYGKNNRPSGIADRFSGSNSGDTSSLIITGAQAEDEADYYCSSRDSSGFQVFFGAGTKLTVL

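The library (AAYL52) carries one to three amino acid substitutions per variant, with no insertions or deletions. Affinity was read by AlphaSeq, a pooled yeast mating assay with surface-displayed partners. Mating (16 h, 30 °C) was followed by selection of diploids and sequencing of their barcodes. Read counts were normalised to the haploid input and turned into Kd by a linear fit to BCL2-family pairs of known affinity, for each replicate. The assay was run in three technical replicates.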

The parent's light chain CDRs are EGDSLRYYYAN, GKNNRPS, SSRDSSGFQVF; each variant's own CDRs replace them letter for letter.
Every variant below is changed at G24 of the VL (sequential numbering).
The Kd shown is the geometric mean over detected replicates; a lower Kd is a better binder.
Where no diploid with the target was found in any replicate, the entry reads "nd": below detection, most likely a poor binder, though not proof of it.
Background: pairings of library AAYL52 with three empty control strains gave a value in 28% of cases (median 8.2 µM, 5th percentile 800 nM). Values in that range, when seen in few replicates, are hard to tell from nonspecific mating. The control count says in how many pairings with the empty strains this scFv gave a signal.
In this assay the parent's reference entry averaged 200 nM; its copy inside this library read 180 nM.

EVDSKRYYYAN, GKNNRPS, MSRDSSGFQVF: 47 nM (3 of 3 replicates; controls 0 of 9).
EVDSLRYYYAN, GKNNRPS, SSRDSEGFQYF: 4.9 µM (2 of 3 replicates; controls 2 of 9).
ERDSLKYYYAN, GYNNRPS, SSRDSSGFQVF: 720 nM (3 of 3 replicates; controls 1 of 9).
EHDSLRYYYAN, GRNNRLS, SSRDSSGFQVF: 8.7 µM (2 of 3 replicates; controls 5 of 9).
ECDSLRYYYAS, GKNNRPS, SSRDSSGSQVF: 8.9 µM (1 of 3 replicates; controls 4 of 9).
ECDSLRYYYAN, GKNNRPS, NSRDSSGFAVF: 280 nM (3 of 3 replicates; controls 2 of 9).
ETDSLRYYYAN, GKNNRPS, SKRDSSGFQVF: 6.4 µM (2 of 3 replicates; controls 1 of 9).
ENDSLRYYYAN, TENNRPS, SSRDSSGFQVF: 11 µM (2 of 3 replicates; controls 1 of 9).
EWDSLRYYYAN, GKNNRPP, WSRDSSGFQVF: 34 µM (2 of 3 replicates; controls 2 of 9).
EVQSLRYYYAN, GKNNRPS, SSRYSSGFQVF: 18 µM (2 of 3 replicates; controls 2 of 9).
EMDSLRYYYAE, GKNNRPS, SYRDSSGFQVF: 45 µM (2 of 3 replicates; controls 1 of 9).
EMDSLRYYYAR, GKNNRPS, QSRDSSGFQVF: 4.5 µM (2 of 3 replicates; controls 2 of 9).
PLDSLRYYYAN, GKNIRPS, SSRDSSGFQVF: 2.3 µM (2 of 3 replicates; controls 5 of 9).
ERDSLRYYYAN, GKNNRPS, SSRDSSGFQRF: 23 µM (3 of 3 replicates; controls 1 of 9).
EADSLRYYYAN, GSNNRPS, SSRDSSGFQVF: 7.8 µM (3 of 3 replicates; controls 6 of 9).
EHDSLRYYYAN, GKNNRPS, SSRDSGGFQVF: 800 nM (3 of 3 replicates; controls 3 of 9).
EADSLRYYYVN, GKNNRPS, SSRDSSGFCVF: 6.9 µM (3 of 3 replicates; controls 1 of 9).
EIDSLRYYYAN, GKNNRPS, GSRPSSGFQVF: nd (0 of 3 replicates; controls 1 of 9).
EEDSLRYIYAN, GKNNRPS, SFRDSSGFQVF: 88 µM (2 of 3 replicates; controls 6 of 9).
ELDSLRYYYAN, GKNNRPS, SSRDSSGFKVF: nd (0 of 3 replicates; controls 1 of 9).
EDDSLRRYYAN, GKNNRPS, SSRDSSGFQFF: 16 µM (2 of 3 replicates; controls 3 of 9).
EKDSLRYYYAN, GKNNRPS, SARDSSAFQVF: 160 µM (1 of 3 replicates; controls 1 of 9).
EWDSNRYYRAN, GKNNRPS, SSRDSSGFQVF: 950 nM (3 of 3 replicates; controls 1 of 9).
EFDSLRYYYAN, GKNNNPS, SDRDSSGFQVF: nd (0 of 3 replicates; controls 1 of 9).
EEDSLRYYYGN, GKNNRPS, SSRDSGGFQVF: 12 µM (1 of 3 replicates; controls 1 of 9).
ENDSLRYYYAN, GKNFRPS, SSRDSSGFQVF: nd (0 of 3 replicates; controls 2 of 9).
EFDSTRYYYAN, GKNNRPS, SSRCSSGFQVF: 23 µM (1 of 3 replicates; controls 1 of 9).
ENDSLRHYFAN, GKNNRPS, SSRDSSGFQVF: 470 nM (3 of 3 replicates; controls 1 of 9).
EPDSLRYDYAN, GKNNRPS, SSRDSKGFQVF: 1.7 µM (3 of 3 replicates; controls 5 of 9).
EDDSLRYYYAD, GKNNRPS, SSRDSSGFQVF: 1.0 µM (2 of 3 replicates; controls 2 of 9).
EIDSLRYYYWN, GKNNRPS, SSRDSSGFQVF: 10 µM (3 of 3 replicates; controls 3 of 9).
ERDSLRYMYAN, GKNNTPS, SSRDSSGFQVF: 1.3 µM (2 of 3 replicates; controls 4 of 9).
ELDSLRYYYAN, GLNNRPS, SSRKSSGFQVF: nd (0 of 3 replicates; controls 3 of 9).

Again, the first 3 entries without any signal:

CDR-L1,CDR-L2,CDR-L3,Kd,seen in,empty controls
EIDSLRYYYAN,GKNNRPS,GSRPSSGFQVF,nd,0 of 3,1 of 9
ELDSLRYYYAN,GKNNRPS,SSRDSSGFKVF,nd,0 of 3,1 of 9
EFDSLRYYYAN,GKNNNPS,SDRDSSGFQVF,nd,0 of 3,1 of 9

From the AlphaSeq antibody data of Engelhart et al. 2022 (doi:10.1038/s41597-022-01779-4), copy in the FLAb collection.